The compounds below were run against PIK3CD (Human) (UniProt O00329) (assay: Assessment of PIK3CD Kinase Activity (Scintillation Proximity Assay)).

Protein sequences, listed by entry. Tags and fused reporters are not part of them. Lines headed by an entry give the natural chain unless they say otherwise; changes in a name come on top.
UniProt O00329: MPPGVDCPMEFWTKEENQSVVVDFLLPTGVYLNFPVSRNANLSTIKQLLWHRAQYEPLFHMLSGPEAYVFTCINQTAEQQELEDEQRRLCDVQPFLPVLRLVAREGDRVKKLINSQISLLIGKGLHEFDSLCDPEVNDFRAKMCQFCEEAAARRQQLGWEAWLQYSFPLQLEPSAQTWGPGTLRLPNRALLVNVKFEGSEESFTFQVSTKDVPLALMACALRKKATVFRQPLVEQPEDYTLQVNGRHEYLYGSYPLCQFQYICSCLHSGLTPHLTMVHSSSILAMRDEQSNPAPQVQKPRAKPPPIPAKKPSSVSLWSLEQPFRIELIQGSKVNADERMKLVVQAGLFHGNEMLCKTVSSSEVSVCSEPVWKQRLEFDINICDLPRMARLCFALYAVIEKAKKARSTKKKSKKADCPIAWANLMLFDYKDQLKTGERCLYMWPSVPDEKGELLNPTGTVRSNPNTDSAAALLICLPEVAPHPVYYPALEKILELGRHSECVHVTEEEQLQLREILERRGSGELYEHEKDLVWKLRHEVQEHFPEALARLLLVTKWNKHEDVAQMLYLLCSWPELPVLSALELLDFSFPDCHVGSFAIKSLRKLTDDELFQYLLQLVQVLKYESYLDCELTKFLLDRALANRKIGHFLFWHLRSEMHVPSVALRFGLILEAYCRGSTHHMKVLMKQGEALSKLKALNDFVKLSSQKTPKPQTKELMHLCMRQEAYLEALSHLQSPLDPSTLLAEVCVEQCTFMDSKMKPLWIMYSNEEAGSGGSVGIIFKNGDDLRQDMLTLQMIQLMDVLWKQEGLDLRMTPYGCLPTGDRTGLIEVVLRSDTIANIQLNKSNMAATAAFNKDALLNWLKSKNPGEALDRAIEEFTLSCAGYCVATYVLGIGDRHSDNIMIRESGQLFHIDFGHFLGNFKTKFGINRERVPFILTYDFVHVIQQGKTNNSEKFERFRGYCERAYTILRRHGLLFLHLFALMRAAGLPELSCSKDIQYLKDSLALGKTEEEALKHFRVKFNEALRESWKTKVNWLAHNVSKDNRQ

IC50, ≤ 10 nM:
COc1c(C(C)n2nc(C)c3c(N)ncnc32)cc(Cl)c(F)c1C1CN(C(C)C)C1 (configuration not stated)
CCOc1c(C(C)n2ccc(=O)c3c(N)ncnc32)cc(Cl)c(C)c1-c1ccc(C(=O)N(C)C)nc1 (configuration not stated)
COc1c(C(C)n2nc(C(F)F)c3c(N)ncnc32)cc(Cl)c(C)c1C1CN(C(C)C)C1 (configuration not stated)
CCOC(=O)C(C)(C)N1CC(c2c(C#N)c(Cl)cc(C(C)n3nc(C)c4c(N)ncnc43)c2OCC)C1 (configuration not stated)
COc1c(C(C)n2nc(C)c3c(N)ncnc32)cc(C)c(C#N)c1-c1ccc(C(=O)N(C)C)nc1 (configuration not stated)
COc1c(C(C)n2nc(C)c3c(N)ncnc32)cc(Cl)c(C)c1C1CC(O)C1 (configuration not stated)
COc1c(C(C)n2nc(C)c3c(N)ncnc32)cc(C)c(C#N)c1-c1cncc(S(C)(=O)=O)c1 (configuration not stated)
